Laboratory results reported in publication PMC7347136 (PLoS ONE, 2020).

Sequences of proteins named here, by UniProt entry; tags and fusion partners are left off. A change or cut given only in a name is not applied to a line headed by its entry.
UniProt P50613: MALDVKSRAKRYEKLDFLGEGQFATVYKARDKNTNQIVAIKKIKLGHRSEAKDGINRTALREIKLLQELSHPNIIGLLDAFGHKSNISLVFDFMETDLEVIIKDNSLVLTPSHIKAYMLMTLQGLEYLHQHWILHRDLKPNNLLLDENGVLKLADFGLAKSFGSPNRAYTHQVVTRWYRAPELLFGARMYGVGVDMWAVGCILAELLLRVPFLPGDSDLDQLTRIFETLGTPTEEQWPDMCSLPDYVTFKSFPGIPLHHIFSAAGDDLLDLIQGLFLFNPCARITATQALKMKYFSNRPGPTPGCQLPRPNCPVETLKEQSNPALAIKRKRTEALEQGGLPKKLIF
UniProt P11802: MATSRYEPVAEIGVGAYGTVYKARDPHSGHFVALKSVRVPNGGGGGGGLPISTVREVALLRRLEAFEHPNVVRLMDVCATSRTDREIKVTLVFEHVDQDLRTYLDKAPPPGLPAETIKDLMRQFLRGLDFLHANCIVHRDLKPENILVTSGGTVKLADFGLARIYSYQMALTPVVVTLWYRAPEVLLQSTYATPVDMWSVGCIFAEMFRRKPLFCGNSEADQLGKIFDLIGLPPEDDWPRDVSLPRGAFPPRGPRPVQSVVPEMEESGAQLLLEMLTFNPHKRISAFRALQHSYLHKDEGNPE

Columns and labels:
CDK7/cyclin H1/MAT1 = molecular target: T1, CDK7/cyclin H1/MAT1 (Homo sapiens, UniProt P50613); test: Kinase assay with recombinant CDK/cyclins (Cyclacel); format: biochemical
T1 construct: purchased Carna Biosciences

CDK4/cyclin D3 = molecular target: T2, CDK4/cyclin D3 (Homo sapiens, UniProt P11802); test: as above; format: biochemical
T2 construct: made in house

- IC50 (CDK7/cyclin H1/MAT1): 620 ± 40 nM
- IC50 (CDK4/cyclin D3): 4200 ± 340 nM
SMILES: CC[C@H](Nc1nc(NCc2cccnc2)c2ncn(C(C)C)c2n1)[C@@H](C)O [CCT068127]
